Measured values from patent publication US6495578B1, “Sulfonamide derivatives having oxadiazole rings” (Shionogi & Co., Ltd., priority 1999, dated 2002).

Protein sequences, listed by entry. Tags and fused reporters are not part of them. Residues count along the entry.
UniProt P08253, 110-660 limits assumed: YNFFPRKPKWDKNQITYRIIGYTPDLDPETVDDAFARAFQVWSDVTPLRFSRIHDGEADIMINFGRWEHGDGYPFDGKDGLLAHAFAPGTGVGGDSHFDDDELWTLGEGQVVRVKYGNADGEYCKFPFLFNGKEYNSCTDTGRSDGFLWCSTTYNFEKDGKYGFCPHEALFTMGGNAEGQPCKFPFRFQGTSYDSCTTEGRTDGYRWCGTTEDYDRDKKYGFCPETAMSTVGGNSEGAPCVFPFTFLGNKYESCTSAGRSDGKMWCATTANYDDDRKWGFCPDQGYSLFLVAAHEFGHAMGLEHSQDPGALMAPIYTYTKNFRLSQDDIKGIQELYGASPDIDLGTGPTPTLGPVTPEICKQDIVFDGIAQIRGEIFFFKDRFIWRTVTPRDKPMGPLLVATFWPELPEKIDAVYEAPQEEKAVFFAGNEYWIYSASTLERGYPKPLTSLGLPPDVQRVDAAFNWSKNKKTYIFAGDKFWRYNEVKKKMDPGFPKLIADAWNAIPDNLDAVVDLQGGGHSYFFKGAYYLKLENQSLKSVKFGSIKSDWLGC

Biological target: MMP-2 (Homo sapiens, UniProt P08253)
Test: Assay for inhibitory activities on MMP-2 (fluorogenic coumarin-labelled peptide substrate)
Type: biochemical
Conditions: MMP-2 purchased from Calbiochem-Novabiochem; substrate MOCAc-Pro-Leu-Gly-Leu-A2Pr(DNP)-Ala-Arg-NH2

IC50 [nM]	Compound
53.4	O=C(O)CNS(=O)(=O)c1ccc(-c2noc(-c3ccc(Br)cc3)n2)cc1
181	O=C(O)CNS(=O)(=O)c1ccc(-c2noc(-c3ccc(F)cc3)n2)cc1
